Earlier results, collected in patent US20110054031A1, “Ophthalmic NSAIDS as Adjuvants” (ISTA Pharmaceuticals, Inc., priority 2008, published 2011).

The chains behind the UniProt entries cited, without tags or fusion partners. Residues count along the entry.
UniProt P23219, 24-599: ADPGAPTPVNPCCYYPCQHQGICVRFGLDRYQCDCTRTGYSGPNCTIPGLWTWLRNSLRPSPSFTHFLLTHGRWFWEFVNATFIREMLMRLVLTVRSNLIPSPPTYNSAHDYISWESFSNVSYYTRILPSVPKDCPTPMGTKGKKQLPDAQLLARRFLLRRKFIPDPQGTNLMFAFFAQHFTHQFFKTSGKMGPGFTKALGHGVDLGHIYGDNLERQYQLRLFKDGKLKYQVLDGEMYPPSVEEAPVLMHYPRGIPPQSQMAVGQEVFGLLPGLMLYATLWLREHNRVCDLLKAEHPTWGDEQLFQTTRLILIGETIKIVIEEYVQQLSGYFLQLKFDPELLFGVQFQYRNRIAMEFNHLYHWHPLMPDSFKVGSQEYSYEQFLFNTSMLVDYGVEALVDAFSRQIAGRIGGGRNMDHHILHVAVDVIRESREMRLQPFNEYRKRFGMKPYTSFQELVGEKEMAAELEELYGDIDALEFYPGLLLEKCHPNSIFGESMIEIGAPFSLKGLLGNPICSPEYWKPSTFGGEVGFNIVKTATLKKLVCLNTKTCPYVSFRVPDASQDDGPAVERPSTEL

Molecular target: COX-1 (Homo sapiens, UniProt P23219)
Conditions: read-out: IC50 COX-1; cited from earlier work

In the case of `CC(C(=O)O)c1ccc(-c2ccccc2)c(F)c1` (racemic) [flurbiprofen, sodium (±)-2-(2-fluoro-4-biphenylyl)-propionate dihydrate], the IC50 is given as 0.082 µM.
